Measured values from patent US20140296484A1, “Cyclin Based Inhibitors of CDK2 and CDK4” (University of South Carolina, priority 2013, published 2014).

Protein sequences, listed by entry. Tags and fused reporters are not part of them.
UniProt P24385, whole entry: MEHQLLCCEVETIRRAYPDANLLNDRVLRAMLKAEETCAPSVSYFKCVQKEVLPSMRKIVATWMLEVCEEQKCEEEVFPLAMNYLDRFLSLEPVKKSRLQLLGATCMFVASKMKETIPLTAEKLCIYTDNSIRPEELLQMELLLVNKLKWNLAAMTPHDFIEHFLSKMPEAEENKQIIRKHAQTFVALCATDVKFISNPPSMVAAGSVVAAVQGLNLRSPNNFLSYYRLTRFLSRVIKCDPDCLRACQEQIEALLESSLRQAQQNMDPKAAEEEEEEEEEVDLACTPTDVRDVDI

Assays:
CDK4/Cyclin D1 = CDK4/Cyclin D1 (Homo sapiens, UniProt P24385); assay: In vitro kinase assay, 32P filter capture with GST-Rb substrate; type: biochemical
CDK2/Cyclin A2 = CDK2/Cyclin A2 (Homo sapiens, UniProt P20248); assay: as above; type: biochemical
CDK2/E = CDK2/E (Homo sapiens, UniProt P24864); assay: In vitro kinase assay

With `CC(C)C[C@H](NC(=O)[C@H](CCCNC(=N)N)NC(=O)[C@H](CCCNC(=N)N)NC(=O)[C@H](CCCCN)NC(=O)[C@H](C)NC(=O)[C@@H](N)CO)C(=O)N[C@@H](CC1CCC1)C(=O)NCC(N)=O` [SAKRRLX4G] the IC50 (CDK4/Cyclin D1) was 74 µM and the IC50 (CDK2/Cyclin A2) was 100 µM.

`CC(C)C[C@H](NC(=O)[C@H](CCCNC(=N)N)NC(=O)[C@H](CCCNC(=N)N)NC(=O)[C@H](CCCCN)NC(=O)[C@H](C)NC(=O)[C@@H](N)CO)C(=O)N[C@@H](CC1CCCCC1)C(=O)NCC(N)=O` [SAKRRLX6G] was tested, and the IC50 (CDK2/Cyclin A2) was 83 µM.

In the case of `CC(C)C[C@H](NC(=O)[C@H](CCCNC(=N)N)NC(=O)[C@H](CCCNC(=N)N)NC(=O)[C@H](CCCCN)NC(=O)[C@H](C)NC(=O)[C@@H](N)CO)C(=O)N[C@@H](Cc1ccco1)C(=O)NCC(N)=O` [SAKRRLX1G], the IC50 (CDK2/E) is reported as 4 µM and the IC50 (CDK2/Cyclin A2) is reported as 9.1 µM.

With `CC(C)C[C@H](NC(=O)[C@H](CCCNC(=N)N)NC(=O)[C@H](CCCNC(=N)N)NC(=O)[C@H](CCCCN)NC(=O)[C@H](C)NC(=O)[C@@H](N)CO)C(=O)N[C@@H](Cc1cccnc1)C(=O)NCC(N)=O` [SAKRRLX7G] the IC50 (CDK2/Cyclin A2) was 80 µM.
